Consider two molecules from patent US9493501B2, “Methyltransferase inhibitors for treating cancer” (MEMORIAL SLOAN-KETTERING CANCER CENTER, priority 2011, dated 2016).

By UniProt entry, the sequences of proteins in these tests, tags left out. Residues count along the entry.
UniProt Q96KQ7, 913-1193 limits assumed: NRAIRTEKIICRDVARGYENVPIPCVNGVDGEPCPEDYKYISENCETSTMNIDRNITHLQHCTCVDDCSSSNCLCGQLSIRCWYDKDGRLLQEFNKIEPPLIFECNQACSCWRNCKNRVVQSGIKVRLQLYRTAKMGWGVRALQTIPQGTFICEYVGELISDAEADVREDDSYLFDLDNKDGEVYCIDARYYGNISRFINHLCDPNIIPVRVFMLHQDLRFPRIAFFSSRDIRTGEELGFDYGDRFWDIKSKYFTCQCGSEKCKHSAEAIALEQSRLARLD
UniProt Q8WTS6, whole entry: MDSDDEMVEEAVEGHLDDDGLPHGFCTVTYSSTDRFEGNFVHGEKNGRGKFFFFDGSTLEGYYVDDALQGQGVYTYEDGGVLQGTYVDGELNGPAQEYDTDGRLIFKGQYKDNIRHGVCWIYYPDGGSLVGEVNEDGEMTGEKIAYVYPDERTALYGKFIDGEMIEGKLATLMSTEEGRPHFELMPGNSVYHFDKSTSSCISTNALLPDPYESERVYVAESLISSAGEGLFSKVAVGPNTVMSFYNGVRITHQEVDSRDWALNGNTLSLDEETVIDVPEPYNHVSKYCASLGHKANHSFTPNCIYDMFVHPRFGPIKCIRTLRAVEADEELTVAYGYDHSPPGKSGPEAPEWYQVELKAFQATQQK
UniProt Q9NQR1, 232-393 limits assumed: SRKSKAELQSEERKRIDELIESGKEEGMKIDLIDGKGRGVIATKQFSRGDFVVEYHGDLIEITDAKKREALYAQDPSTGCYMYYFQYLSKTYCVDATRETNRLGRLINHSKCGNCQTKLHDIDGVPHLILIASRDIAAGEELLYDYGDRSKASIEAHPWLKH
UniProt Q9BYW2, 1347-1711 limits assumed: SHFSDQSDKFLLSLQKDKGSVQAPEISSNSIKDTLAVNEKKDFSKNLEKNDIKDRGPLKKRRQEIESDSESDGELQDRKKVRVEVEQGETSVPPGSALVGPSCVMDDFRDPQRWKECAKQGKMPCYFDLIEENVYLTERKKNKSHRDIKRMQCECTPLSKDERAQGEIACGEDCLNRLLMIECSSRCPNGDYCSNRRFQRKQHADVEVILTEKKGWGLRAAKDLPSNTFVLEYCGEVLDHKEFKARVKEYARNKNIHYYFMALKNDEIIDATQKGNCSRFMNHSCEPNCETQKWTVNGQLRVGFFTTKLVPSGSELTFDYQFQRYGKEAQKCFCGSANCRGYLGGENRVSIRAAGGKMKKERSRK
UniProt Q99873, 10-352 isoform 3 limits assumed: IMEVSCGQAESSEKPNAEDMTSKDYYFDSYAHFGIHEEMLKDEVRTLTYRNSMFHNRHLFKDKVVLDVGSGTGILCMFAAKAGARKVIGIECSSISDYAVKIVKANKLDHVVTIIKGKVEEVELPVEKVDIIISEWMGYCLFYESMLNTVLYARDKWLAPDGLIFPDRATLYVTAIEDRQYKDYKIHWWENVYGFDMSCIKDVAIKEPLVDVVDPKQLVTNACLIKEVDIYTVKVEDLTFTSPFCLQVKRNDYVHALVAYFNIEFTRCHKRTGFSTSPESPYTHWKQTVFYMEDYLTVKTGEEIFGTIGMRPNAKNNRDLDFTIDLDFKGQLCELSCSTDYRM
UniProt O60678, 211-531 limits assumed: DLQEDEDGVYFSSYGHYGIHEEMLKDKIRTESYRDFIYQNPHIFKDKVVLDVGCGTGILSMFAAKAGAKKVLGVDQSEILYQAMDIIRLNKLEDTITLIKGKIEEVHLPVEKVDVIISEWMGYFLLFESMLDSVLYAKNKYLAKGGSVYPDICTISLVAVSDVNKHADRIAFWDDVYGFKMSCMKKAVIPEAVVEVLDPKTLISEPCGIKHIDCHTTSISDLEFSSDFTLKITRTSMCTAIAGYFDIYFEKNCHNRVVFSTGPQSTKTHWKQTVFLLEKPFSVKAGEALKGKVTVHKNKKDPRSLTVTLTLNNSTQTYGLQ
UniProt Q9H5I1, 112-410 limits assumed: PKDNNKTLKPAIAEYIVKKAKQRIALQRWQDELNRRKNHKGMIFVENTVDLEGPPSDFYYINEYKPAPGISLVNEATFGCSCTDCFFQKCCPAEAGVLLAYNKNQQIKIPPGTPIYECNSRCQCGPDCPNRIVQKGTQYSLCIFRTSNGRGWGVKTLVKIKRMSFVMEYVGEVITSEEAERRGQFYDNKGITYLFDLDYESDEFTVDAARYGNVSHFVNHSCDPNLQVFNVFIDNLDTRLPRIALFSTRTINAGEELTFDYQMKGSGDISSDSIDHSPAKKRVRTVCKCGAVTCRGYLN
UniProt Q86X55, 19-608 limits assumed: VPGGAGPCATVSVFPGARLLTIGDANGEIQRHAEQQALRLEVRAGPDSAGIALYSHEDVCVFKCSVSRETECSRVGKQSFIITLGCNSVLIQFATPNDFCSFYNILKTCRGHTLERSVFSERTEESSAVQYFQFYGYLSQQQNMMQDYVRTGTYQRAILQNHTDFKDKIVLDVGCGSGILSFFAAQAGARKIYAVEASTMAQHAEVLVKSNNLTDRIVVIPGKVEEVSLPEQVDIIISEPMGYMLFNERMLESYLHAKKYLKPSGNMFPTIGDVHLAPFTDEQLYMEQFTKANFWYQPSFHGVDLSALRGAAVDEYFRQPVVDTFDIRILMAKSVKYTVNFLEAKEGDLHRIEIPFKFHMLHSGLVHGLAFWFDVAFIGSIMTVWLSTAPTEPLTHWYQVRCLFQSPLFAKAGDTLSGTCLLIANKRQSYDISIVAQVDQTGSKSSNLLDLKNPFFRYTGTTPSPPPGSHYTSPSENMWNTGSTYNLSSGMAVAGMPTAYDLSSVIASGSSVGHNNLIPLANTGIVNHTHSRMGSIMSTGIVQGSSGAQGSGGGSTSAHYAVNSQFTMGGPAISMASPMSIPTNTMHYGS
UniProt Q9NRG4, whole entry: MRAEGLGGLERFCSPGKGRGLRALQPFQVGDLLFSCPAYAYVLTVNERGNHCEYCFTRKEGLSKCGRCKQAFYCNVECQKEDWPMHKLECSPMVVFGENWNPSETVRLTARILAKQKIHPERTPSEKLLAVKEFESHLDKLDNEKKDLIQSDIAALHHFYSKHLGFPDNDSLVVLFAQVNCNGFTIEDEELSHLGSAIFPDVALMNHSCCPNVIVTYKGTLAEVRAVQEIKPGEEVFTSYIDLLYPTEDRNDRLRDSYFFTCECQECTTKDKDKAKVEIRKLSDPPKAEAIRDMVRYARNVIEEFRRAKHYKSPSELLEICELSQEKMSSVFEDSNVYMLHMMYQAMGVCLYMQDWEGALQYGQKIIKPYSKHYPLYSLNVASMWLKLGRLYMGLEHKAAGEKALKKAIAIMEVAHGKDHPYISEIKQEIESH
UniProt Q9H9B1, 982-1266 limits assumed: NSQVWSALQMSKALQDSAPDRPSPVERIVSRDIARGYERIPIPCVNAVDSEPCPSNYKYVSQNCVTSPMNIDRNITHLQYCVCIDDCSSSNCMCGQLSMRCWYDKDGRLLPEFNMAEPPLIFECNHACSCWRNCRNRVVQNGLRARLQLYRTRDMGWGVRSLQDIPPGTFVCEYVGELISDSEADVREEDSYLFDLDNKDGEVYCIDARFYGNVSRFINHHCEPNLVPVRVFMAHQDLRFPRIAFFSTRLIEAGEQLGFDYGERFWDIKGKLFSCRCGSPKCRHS

One assay addresses G9a (913-1913) (Homo sapiens, UniProt Q96KQ7). Briefly: Filter-paper methylation assay, G9a. It counts as biochemical. The conditions noted are these: read-out: IC50 G9a; 20 nM enzyme, H3 (1-21 aa) peptide, 1 h.
In the next assay the target is SET7/9 Full-length (Homo sapiens, UniProt Q8WTS6). Briefly: Filter-paper methylation assay, SET7/9. The conditions noted are these: read-out: IC50 SET7/9; 150 nM enzyme, H3 (1-21 aa) peptide, 3 h. Format: biochemical.
Another assay concerns the target SET8 (191-352) (Homo sapiens, UniProt Q9NQR1). The assay can be described thus: Filter-paper methylation assay, SET8. Format: biochemical. The conditions noted are these: read-out: IC50 SET8; 1000 nM enzyme, H4 (10-30 aa) peptide, 8 h.
A further assay has as its target SETD2 (1347-1711) (Homo sapiens, UniProt Q9BYW2). The assay can be described thus: Filter-paper methylation assay, SETD2. It counts as biochemical. The conditions noted are these: read-out: IC50 SETD2; 250 nM enzyme, H3 (20-50 aa) peptide, 4 h.
A further assay addresses PRMT1 (10-352) (Homo sapiens, UniProt Q99873). Briefly: Filter-paper methylation assay, PRMT1. It counts as biochemical. The conditions noted are these: read-out: IC50 PRMT1; 100 nM enzyme, RGG peptide, 1.5 h.
Another assay has as its target PRMT3 (211-531) (Homo sapiens, UniProt O60678). Briefly: Filter-paper methylation assay, PRMT3. It counts as biochemical. As to conditions: read-out: IC50 PRMT3; 100 nM enzyme, RGG peptide, 3 h.
The next assay addresses SUV39H2 (112-410) (Homo sapiens, UniProt Q9H5I1). The assay can be described thus: Filter-paper methylation assay, SUV39H2. As to conditions: read-out: IC50 SUV39H2; 5 nM enzyme, H3 (1-21 aa) peptide, 4 h. It counts as biochemical.
Another assay deals with CARM1 (19-608) (Homo sapiens, UniProt Q86X55). The assay can be described thus: Filter-paper methylation assay, CARM1. Format: biochemical. The conditions noted are these: for IC50: read-out: IC50 CARM1, 300 nM enzyme, H3 (1-40 aa) peptide, 7 h.
In another assay the target is SMYD2 Full-length (Homo sapiens, UniProt Q9NRG4). The assay can be described thus: Filter-paper methylation assay, SMYD2. Format: biochemical. The conditions noted are these: read-out: IC50 SMYD2-FL; 50 nM enzyme, p53 (360-393 aa) peptide, 10 h.
The next assay concerns the target GLP1 (951-1235) (Homo sapiens, UniProt Q9H9B1). As to conditions: read-out: IC50 GLP1; 10 nM enzyme, H3 (1-21 aa) peptide, 1 h.

On to `COCCCCN[C@@H](CC[C@H](N)C(=O)O)C[C@H]1O[C@@H](n2cnc3c(N)ncnc32)[C@H](O)[C@@H]1O`, for which the IC50 at G9a (913-1913) was > 100 µM; on SET7/9 Full-length, 12.6 µM; on SET8 (191-352), > 100 µM; on SETD2 (1347-1711), 2.9 µM; on PRMT1 (10-352) it was > 50 µM; at PRMT3 (211-531) it was 70 µM. Also, the IC50 at SUV39H2 (112-410) was 100 µM; at CARM1 (19-608) it was 9.9 µM; on SMYD2 Full-length, 0.3 µM; at GLP1 (951-1235), > 100 µM.

For the molecule `N=C(N)NC[C@@H](CC[C@H](N)C(=O)O)C[C@H]1O[C@@H](n2cnc3c(N)ncnc32)[C@H](O)[C@@H]1O`, the IC50 is 32 µM at G9a (913-1913); 34.8 µM at SET7/9 Full-length; > 100 µM at SET8 (191-352); 24.4 µM on SETD2 (1347-1711); 1.9 µM on PRMT1 (10-352); 0.7 µM on PRMT3 (211-531). Moreover, the IC50 was 8.6 µM on SUV39H2 (112-410), 0.02 µM at CARM1 (19-608), 0.2 µM on SMYD2 Full-length and 24.2 µM on GLP1 (951-1235). On CARM1 (19-608) (among the subset of PMTs screened), the “selectivity for CARM1 inhibition” value is “apparent selectivity”.
